Assays:
[1] = In vitro release from SAIB depot compositions; type: physicochemical; settings: SAIB 65% wt
[2] = Pericardial fluid and plasma concentrations after 7 days of pericardial or systemic infusion; settings: 7 days intrapericardial infusion; calculated for each animal

Substance | period of VEGF release (extruded hollow tube made of caprolactone) [days] | release of VEGF over a 25-day period (hollow rod of 65:35 poly(dl-lactide-co-glycolide) with 5% PEG 1000) | % Release, 24 h ([1]; DMSO 30%, DL-PLG 5%) [%] | % Release, 168 h ([1]; DMSO 30%, DL-PLG 5%) [%] | % Release, 24 h ([1]; DMSO 35%, no additive) [%] | % Release, 168 h ([1]; DMSO 35%, no additive) [%] | Peric/plasma ratio [2]
VEGF | 30 | about 50% | 5 | 40 | 15 | 70 | 
Cortisol carbonic acid |  |  |  |  |  |  | 420 ± 81 (3)

— patent US20080095824A1, “Delivery of drugs from sustained release devices implanted in myocardial tissue or in the pericardial space” (Durect Corporation, priority 2001, published 2008)
